This assay concerns the target Vascular endothelial growth factor receptor 2 (Homo sapiens, UniProt P35968). Put plainly: Inhibition of GST-tagged human recombinant VEGFR2 expressed in baculovirus.

Amino acid sequences for entries named in this document (tags omitted).
UniProt P35968, whole entry: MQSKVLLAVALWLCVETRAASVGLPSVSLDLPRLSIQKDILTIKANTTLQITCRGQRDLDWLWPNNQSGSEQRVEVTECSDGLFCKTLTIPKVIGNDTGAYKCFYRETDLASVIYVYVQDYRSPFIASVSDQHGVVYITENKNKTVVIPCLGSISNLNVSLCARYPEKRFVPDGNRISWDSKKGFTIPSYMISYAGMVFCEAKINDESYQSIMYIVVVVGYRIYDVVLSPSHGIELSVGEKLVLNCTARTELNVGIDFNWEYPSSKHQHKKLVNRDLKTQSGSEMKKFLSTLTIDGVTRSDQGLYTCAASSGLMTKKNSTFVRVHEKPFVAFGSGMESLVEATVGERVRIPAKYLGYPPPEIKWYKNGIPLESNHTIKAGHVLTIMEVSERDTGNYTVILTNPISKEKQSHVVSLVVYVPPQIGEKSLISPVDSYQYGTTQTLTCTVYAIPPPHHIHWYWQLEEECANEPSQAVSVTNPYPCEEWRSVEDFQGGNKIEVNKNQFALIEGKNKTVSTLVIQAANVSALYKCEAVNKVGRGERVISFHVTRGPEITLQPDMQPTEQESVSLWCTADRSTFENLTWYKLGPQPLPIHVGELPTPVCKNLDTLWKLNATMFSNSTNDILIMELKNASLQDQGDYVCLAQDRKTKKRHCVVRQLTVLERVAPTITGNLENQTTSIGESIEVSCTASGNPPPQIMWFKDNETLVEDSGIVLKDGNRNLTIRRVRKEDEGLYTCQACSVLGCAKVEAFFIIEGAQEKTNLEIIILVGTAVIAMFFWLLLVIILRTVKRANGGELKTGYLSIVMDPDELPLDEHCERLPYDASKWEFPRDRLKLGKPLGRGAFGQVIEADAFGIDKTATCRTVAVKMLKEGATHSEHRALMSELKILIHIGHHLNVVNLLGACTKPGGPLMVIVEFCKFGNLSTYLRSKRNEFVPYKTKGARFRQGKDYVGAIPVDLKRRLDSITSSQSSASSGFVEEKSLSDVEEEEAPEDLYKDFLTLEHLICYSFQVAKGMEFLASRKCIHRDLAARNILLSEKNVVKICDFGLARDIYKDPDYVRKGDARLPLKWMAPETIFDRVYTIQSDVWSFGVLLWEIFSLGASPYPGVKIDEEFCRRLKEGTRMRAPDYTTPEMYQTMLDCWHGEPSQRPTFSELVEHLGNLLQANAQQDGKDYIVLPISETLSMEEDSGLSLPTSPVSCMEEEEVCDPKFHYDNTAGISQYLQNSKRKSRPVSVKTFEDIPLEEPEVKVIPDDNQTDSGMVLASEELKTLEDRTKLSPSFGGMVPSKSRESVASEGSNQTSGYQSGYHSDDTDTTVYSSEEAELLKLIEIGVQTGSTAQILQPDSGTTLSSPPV

Molecules are shown by their SMILES.

With `COC(=O)Nc1nc2ccc(Oc3ccc(NC(=O)Nc4cc(C(F)(F)F)ccc4F)cc3)cc2[nH]1`, the IC50 is 3.5 nM.

In general, IC50 refers to the midpoint of a concentration-inhibition curve.

Source of the values: ChEMBL document CHEMBL1148750, “Discovery of novel benzimidazoles as potent inhibitors of TIE-2 and VEGFR-2 tyrosine kinase receptors” (J Med Chem, 2007).
